# Permeability data for macrocyclic peptides

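The data file gives no further conditions (lipid, pH, time, direction or concentration), and values from different papers need not be comparable. The list need not hold all peptides of the study. Entries at the database's floor value (log10 P of -10) are not listed.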

PAMPA measures passive passage through an artificial lipid membrane. P is given in units of 10^-6 cm/s (from log10 values with two decimals); larger means faster passage.

compound,PAMPA (10^-6 cm/s)
CC(C)C[C@@H]1C(=O)N(C)[C@@H](CC(C)C)C(=O)N2CCC[C@H]2C(=O)N[C@H](CC(C)C)C(=O)N[C@@H](Cc2ccccc2)C(=O)N[C@@H](Cc2ccccc2)CC(=O)N1C,6.2
CC(C)C[C@@H]1C(=O)N2CCC[C@H]2C(=O)N(C)[C@H](CC(C)C)C(=O)N[C@@H](Cc2ccccc2)C(=O)N2CCC[C@H]2C(=O)N[C@H](C)C(=O)N(Cc2ccccc2)CC(=O)N1C,1.9
CC(C)C[C@H]1C(=O)N[C@@H](Cc2ccccc2)C(=O)N2CCC[C@@H]2C(=O)N(C)[C@@H](C)C(=O)N(Cc2ccccc2)CC(=O)N(Cc2ccccc2)CC(=O)N2CCC[C@@H]2C(=O)N1C,1.3
CC(C)C[C@@H]1NC(=O)[C@@H]2CCCN2C(=O)[C@@H](CC(C)C)N(C)C(=O)CN(Cc2ccccc2)C(=O)C[C@H](Cc2ccccc2)NC(=O)[C@H]2CCCN2C(=O)[C@H](Cc2ccccc2)NC1=O,0.5
CC(C)C[C@@H]1NC(=O)[C@H]2CCCN2C(=O)C[C@H](Cc2ccccc2)NC(=O)CN(Cc2ccccc2)C(=O)[C@@H](C)NC(=O)[C@H]2CCCN2C(=O)[C@H](Cc2ccccc2)NC1=O,0.058
CC(C)C[C@H]1NC(=O)[C@@H]2CCCN2C(=O)C[C@H](Cc2ccccc2)NC(=O)CN(Cc2ccccc2)C(=O)[C@@H](C)NC(=O)[C@@H]2CCCN2C(=O)[C@H](Cc2ccccc2)NC1=O,0.35
CC(C)C[C@H]1NC(=O)[C@H](C)NC(=O)[C@H]2CCCN2C(=O)[C@H](Cc2ccccc2)NC(=O)CN(Cc2ccccc2)C(=O)[C@@H]2CCCN2C(=O)C[C@H](Cc2ccccc2)NC1=O,0.59
CCCN1CC(=O)N(Cc2ccccc2)CC(=O)N[C@@H](Cc2ccccc2)CC(=O)N2CCC[C@H]2C(=O)N(C)[C@H](CC(C)C)C(=O)N[C@@H](Cc2ccccc2)C(=O)N2CCC[C@@H]2C1=O,1.2
CC(C)C[C@@H]1C(=O)N[C@@H](Cc2ccccc2)C(=O)N2CCC[C@@H]2C(=O)N[C@@H](C)C(=O)N(Cc2ccccc2)CC(=O)N(Cc2ccccc2)CC(=O)N2CCC[C@H]2C(=O)N1C,0.5
CCCN1CC(=O)N[C@H](CC(C)C)C(=O)N[C@@H](Cc2ccccc2)CC(=O)N2CCC[C@@H]2C(=O)N(Cc2ccccc2)CC(=O)N[C@@H](Cc2ccccc2)C1=O,6.5
CC(C)C[C@H]1C(=O)N2CCC[C@H]2C(=O)N(C)[C@@H](CC(C)C)C(=O)N[C@@H](Cc2ccccc2)C(=O)N(C)[C@H](C)C(=O)N(Cc2ccccc2)CC(=O)N1C,14
CC(C)C[C@H]1C(=O)N(Cc2ccccc2)CC(=O)N2CCC[C@@H]2C(=O)N(Cc2ccccc2)CC(=O)N[C@@H](Cc2ccccc2)C(=O)N[C@@H](Cc2ccccc2)CC(=O)N1C,1.5

A selection of 2 entries from above:

compound	PAMPA (10^-6 cm/s)
CC(C)C[C@@H]1C(=O)N(C)[C@@H](CC(C)C)C(=O)N2CCC[C@H]2C(=O)N[C@H](CC(C)C)C(=O)N[C@@H](Cc2ccccc2)C(=O)N[C@@H](Cc2ccccc2)CC(=O)N1C	6.2
CC(C)C[C@@H]1NC(=O)[C@H]2CCCN2C(=O)C[C@H](Cc2ccccc2)NC(=O)CN(Cc2ccccc2)C(=O)[C@@H](C)NC(=O)[C@H]2CCCN2C(=O)[C@H](Cc2ccccc2)NC1=O	0.058

Values of Townsend et al. 2020, doi:10.26434/chemrxiv.13335941.v1, as listed in CycPeptMPDB.